Measurements taken from patent US20130089499A1 (NATIONAL RESEARCH COUNCIL OF CANADA, published 2013).

Amino acid sequences for entries named in this document (tags omitted). Residues count along the entry.
UniProt P01137, 279-390 limits assumed: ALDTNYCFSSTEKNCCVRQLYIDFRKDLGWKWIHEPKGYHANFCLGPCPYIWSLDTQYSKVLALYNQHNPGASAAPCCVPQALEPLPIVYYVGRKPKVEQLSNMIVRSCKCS

Biological target: TGF-β1 (UniProt P01137)
Test: cell-based or functional assay

IC50, inhibition of TGF-β signaling in Mv1Lu luciferase reporter cells: 0.1 nM
Substance: TβRII-Fc R&D (from UniProt P37173 23-166) (Fc fusion)
